Values of other authors in US9302977B2, “Method of making monomethyl fumarate” (XenoPort, Inc., priority 2013, dated 2016).

Test system: amyotrophic lateral sclerosis
Settings: in vivo

## Nc1nc2ccc(OC(F)(F)F)cc2s1 [riluzole]
  extension of survival in ALS: about three
